Laboratory results as given in patent US9012446B2, “Amino-oxazines and amino-dihydrothiazine compounds as beta-secretase modulators and methods of use” (Amgen Inc., priority 2010, dated 2015).
pIC50: −log10 of the molar value. Like-named read-outs stand apart in the source and are kept apart here.

Protein sequences, listed by entry. Tags and fused reporters are not part of them. Residues count along the entry.
UniProt P56817, 46-501 limits assumed: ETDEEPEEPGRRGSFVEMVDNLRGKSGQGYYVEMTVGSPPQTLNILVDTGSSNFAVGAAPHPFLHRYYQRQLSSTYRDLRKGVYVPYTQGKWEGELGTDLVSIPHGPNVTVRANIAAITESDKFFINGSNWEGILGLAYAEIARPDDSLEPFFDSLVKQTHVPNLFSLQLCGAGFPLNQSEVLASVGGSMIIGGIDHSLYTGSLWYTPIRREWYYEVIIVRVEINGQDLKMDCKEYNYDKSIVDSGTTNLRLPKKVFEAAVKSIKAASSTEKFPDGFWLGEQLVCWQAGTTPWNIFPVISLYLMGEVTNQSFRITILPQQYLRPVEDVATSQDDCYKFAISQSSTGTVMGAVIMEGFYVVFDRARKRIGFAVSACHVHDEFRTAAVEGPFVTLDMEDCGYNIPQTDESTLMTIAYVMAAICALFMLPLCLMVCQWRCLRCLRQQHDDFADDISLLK

Experiments:
Aβ40 = assay: In vitro BACE cell-based assay (Aβ40 sandwich ELISA, cells stably expressing APP); conditions: read-out: HEK cell assay
Protocol: In Vitro BACE Cell-Based Assay
The cell-based assay measures inhibition or reduction of Aβ40 in conditioned medium of test compound treated cells expressing amyloid precursor protein.
Cells stably expressing Amyloid Precursor Protein (APP) were plated at a density of 40K cells/well in 96 well plates (Costar). The cells were cultivated for 24 hours at 37° C. and 5% CO2 in DMEM supplemented with 10% FBS. The test compounds were then added to cells in 10-point dose response concentrations with the starting concentration being either 100 μM or 10 μM. The compounds were diluted from stock solutions in DMSO and the final DMSO concentration of the test compounds on cells was 0.1%. After 24 h of incubation with the test compounds the supernatant conditioned media was collected and the Aβ40 levels were determined using a sandwich ELISA. The IC50 of the compound was calculated from the percent of control or percent inhibition of Aβ40 as a function of the concentration of the test compound.
The sandwich ELISA to detect Aβ40 was performed in 96 well microtiter plates, which were pre-treated with goat anti-rabbit IgG (Pierce). The capture and detecting antibody pair that were used to detect Aβ40 from cell supernatants were affinity purified pAb40 (Biosource) and biotinylated 6E10 (Signet Labs Inc.), respectively. The optimal concentration for the pAb40 antibody was 3 μg/ml in Superblock/TBS (Pierce) that was supplemented with 0.05% Tween 20 (Sigma). Optimal concentration for the detection antibody 6E10-biotinylated was 0.5 μg/ml in Superblock/TBS (Pierce) that had been supplemented with 2% normal goat serum and 2% normal mouse serum.
Cellular supernatants were incubated with the capture antibody for 3 h at 4° C., followed by 3 wash steps in TBS-tween (0.05%). The detecting antibody incubation was for 2 h at 4° C., again followed by the wash steps as described previously. The final readout of the ELISA is Time-Resolved Fluorescence (counts per minute) using Delfia reagents Streptavidin-Europium and Enhancement solutions (Perkin Elmer) and the Victor 2 multilabel counter (Perkin Elmer).

BACE = BACE (Homo sapiens, UniProt P56817); assay: In vitro enzymatic BACE FRET assay; format: biochemical; conditions: read-out: BACE 1 FRET assay; average IC50, enzyme assay
Protocol: In Vitro Enzymatic BACE FRET (Fluorescence Resonance Energy Transfer) Assay (Enzyme Assay Data in the Example Table I) The assay buffer used in this screen is 0.05 M acetate, pH 4.2, 10% DMSO final, 100 uM genapol (which is a nonionic detergent, below its Critical Micelle Concentration). The beta secretase enzyme (0.2 nM) is pre-incubated for one hour with inhibitors, typically in about 1 uL of DMSO according to a serial dilution, are added thereto. This assay is effectively started by the addition of FRET substrate (50 nM) and the combination is incubated for one hour. The FRET assay is terminated with by addition of Tris buffer, which raises the pH to neutrality, and the fluorescence is determined. The FRET substrate is a peptide with commercially available fluorophore and quencher, on opposite sides of the BACE cleavage site. Proteolytic cleavage of the FRET substrate releases quenching of fluorescence (excitation 488 nm and emission […]).

Abeta 40 = assay: In vivo inhibition of beta-secretase: Abeta 40 reduction in CSF and brain of the rat; conditions: after 4 hrs
Excerpt: In Vivo Inhibition of Beta-Secretase
Several animal models, including mouse, rat, dog, and monkey, may be used to screen for inhibition of beta-secretase activity in vivo following administration of a test compound sample. Animals used in this invention can be wild type, transgenic, or gene knockout animals. For example, the Tg2576 mouse model, prepared and conducted as described in Hsiao et al., 1996, Science 274, 99-102, and other non-transgenic or gene knockout animals are useful to analyze in vivo inhibition of Amyloid beta peptide (Abeta) production in the presence of inhibitory test compounds. Generally, 2 to 18 month old Tg2576 mice, gene knockout mice or non-transgenic animals are administered test compounds formulated in vehicles, such as cyclodextran, phosphate buffers, hydroxypropyl methylcellulose or other suitable vehicles. […] CSF or brain supernatants are then analyzed for the presence of A-beta peptide by specific sandwich ELISA assays based on ECL (Electrochemiluminescence) technology. For example, rat Abeta40 is measured using biotinylated-4G8 (Signet) as a capture antibody and Fab40 (an in-house antibody specific to the C-terminal of Abeta40) as a detection antibody. […]

[1] = average IC50, cell assay, HEK cells

pIC50 (Aβ40; average IC50, HEK cell assay) | pIC50 (BACE) | pIC50 (Aβ40; [1]) | Compound | % reduction of rat CSF levels at 10 pmk (Abeta 40; Abeta 40, rat CSF, 10 mpk) | % reduction of rat brain levels at 10 mpk (Abeta 40; Abeta 40, rat brain)
7.77 | 7.70 | – | NC1=NC2(CCO1)c1cc(-c3cccnc3F)ccc1Oc1ncc(-c3ccnc(F)c3)cc12 (stereo not shown) | – | –
6.57 | 6.99 | – | COc1cc(F)c2c(c1)C1(CCOC(N)=N1)c1cc(-c3cccnc3F)ccc1O2 (stereo not shown) | – | –
– | 7.60 | 7.44 | NC1=NC2(CCO1)c1cc(-c3cccnc3F)ccc1Oc1cnc(-c3ccnc(F)c3)cc12 (stereo not shown) | – | –
7.47 | 7.21 | – | NC1=NC2(CCO1)c1cc(-c3cccnc3)ccc1Oc1cnc(-c3cccnc3)cc12 (stereo not shown) [compound 150, 3,7-di-3-pyridinyl-5′,6′-dihydrospiro[chromeno[2,3-c]pyridine-5,4′-[1,3]oxazin]-2′-amine] | – | –
– | 9.05 | 8.26 | NC1=NC2(COC1)c1cc(-c3cccnc3F)ccc1Oc1cnc(-c3ccnc(F)c3)cc12 (stereo not shown) | – | –

Continued, compound first:

Compound | pIC50 (Aβ40; average IC50, HEK cell assay) | pIC50 (BACE) | pIC50 (Aβ40; [1]) | % reduction of rat CSF levels at 10 pmk (Abeta 40; Abeta 40, rat CSF, 10 mpk) | % reduction of rat brain levels at 10 mpk (Abeta 40; Abeta 40, rat brain)
NC1=NC2(COC1C1CCOCC1)c1cc(-c3cccnc3F)ccc1Oc1cnc(Cl)cc12 (stereo not shown) | 7.49 | 7.62 | – | – | –
NC1=N[C@@]2(CO[C@@H]1C1CCOCC1)c1cc(-c3cccnc3F)ccc1Oc1cnc(Cl)cc12 (relative stereo) | 7.16 | 6.48 | – | – | –
NC1=NC2(COC1c1cccnc1)c1cc(-c3cccnc3F)ccc1Oc1cnc(Cl)cc12 (stereo not shown) | 6.18 | 6.98 | – | – | –
NC1=N[C@@]2(COC1)c1cc(-c3cccnc3F)ccc1Oc1cnc(C3=CCCOC3)cc12 | – | 9.40 | 9.22 | 38% | 27%
NC1=NC2(COC1C1CCOCC1)c1cc(Br)ccc1Oc1cnc(Cl)cc12 (stereo not shown) | 5.61 | 5.59 | – | – | –
